Patent US20250041438A1, “ANTIBODY-DRUG CONJUGATE” (NOVELTY NOBILITY INC., priority 2022, published 2025)

Test system: GIST-T1 cells
Experiment: In vivo efficacy against GIST, GIST-T1 cell xenograft model
Settings: imatinib 100 mg/kg group

Work on Cc1ccc(NC(=O)c2ccc(CN3CCN(C)CC3)cc2)cc1Nc1nccc(-c2cccnc2)n1 yielded a mortality of 1 case died on day 91.
